In PMC4562309, “The identification of an integral membrane, cytochrome c urate oxidase completes the catalytic repertoire of a therapeutic enzyme” (2015) one finds IC50 data, which are given here for 1 compound.

Protein sequences, listed by entry. Tags and fused reporters are not part of them. Lines headed by an entry give the natural chain unless they say otherwise; changes in a name come on top.
UniProt Q6DG85: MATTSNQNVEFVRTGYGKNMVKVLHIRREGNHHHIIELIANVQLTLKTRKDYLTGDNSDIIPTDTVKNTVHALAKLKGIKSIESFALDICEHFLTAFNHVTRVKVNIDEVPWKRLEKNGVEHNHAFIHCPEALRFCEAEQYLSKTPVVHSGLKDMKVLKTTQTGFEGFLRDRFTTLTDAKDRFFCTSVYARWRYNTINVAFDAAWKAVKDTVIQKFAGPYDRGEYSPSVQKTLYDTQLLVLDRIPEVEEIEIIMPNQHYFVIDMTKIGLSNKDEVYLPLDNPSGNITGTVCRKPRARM

The assay concerns the target zfUox (Danio rerio, UniProt Q6DG85). Description: urate oxidase activity assay, in vitro. The note with it: substrate urate; assay details not told.

As a reminder, the IC50 is the concentration needed to halve the response being measured. Read a high IC50 as a need for much substance. Compound `[N-]=[N+]=N` came in with a half-inhibitory concentration (IC50) of 20 mM.
